Chains of the proteins cited; added tags and fusions are not shown. Residues count along the entry.
UniProt Q08210, 158-569: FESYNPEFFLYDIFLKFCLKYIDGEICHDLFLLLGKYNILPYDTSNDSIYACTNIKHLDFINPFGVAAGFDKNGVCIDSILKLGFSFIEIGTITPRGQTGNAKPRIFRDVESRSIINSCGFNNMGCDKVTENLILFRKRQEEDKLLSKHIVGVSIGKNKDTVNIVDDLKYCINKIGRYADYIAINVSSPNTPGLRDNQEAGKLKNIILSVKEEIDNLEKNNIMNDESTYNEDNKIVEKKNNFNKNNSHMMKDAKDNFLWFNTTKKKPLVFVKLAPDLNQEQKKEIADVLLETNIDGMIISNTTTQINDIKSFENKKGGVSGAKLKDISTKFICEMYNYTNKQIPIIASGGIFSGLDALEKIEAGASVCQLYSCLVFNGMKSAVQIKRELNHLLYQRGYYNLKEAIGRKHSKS

According to article PMC2746568 (Journal of medicinal chemistry, 2009):

How the values were obtained:
[1] = Mouse pharmacokinetics after oral dosing; assay type: in vivo; conditions: mice, 50 mg/kg oral for 2 to 4 days
[2] = molecular target: PfDHODH (Plasmodium falciparum, UniProt Q08210); conditions: PfDHODH vs human DHODH; cited from earlier work
[3] = In vitro human microsomal metabolism; conditions: estimated from measured rate of degradation in vitro

plasma concentrations after last dose of repeat dosing relative to single dose [1]: significantly reduced
Predicted EH (hepatic extraction ratio) [3]: 0.84
Compound: Cc1cc(Nc2ccc3ccccc3c2)n2ncnc2n1 [Compound 2, (5-methyl-[1,2,4]triazolo[1,5-a]pyrimidin-7-yl)-naphthalen-2-yl-amine]
selectivity for the malarial enzyme compared to human DHODH [2]: greater than 4,000 fold
